In PubChem BioAssay AID903 (National Center for Advancing Translational Sciences (NCATS), 2007) one finds activity change, negative = cytotoxicity data, which are given here for 13 compounds.

The structures appear in SMILES notation. This is a selection; strong and weak results do not stand in their true shares. Records with an inconclusive call do not appear. Activity calls are given as the source filed them. Calls follow the shape of the dose curve; as a rule, active = well fitted cell-killing curve with a large enough effect; inconclusive = small, poorly fitted or top-dose-only effect; inactive = no such curve, though single readings can be large or run the other way.

The assay is described as follows: qHTS Screen for Compounds that Selectively Target Cancer Cells with p53 Mutations: Cytotoxicity of p53 Null Cells at the Permissive Temperature.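 Also: 0% = DMSO only and -100% = full killing by 100 µM tamoxifen; nearly all actives have a fitted effect of over 55% in size.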 As to conditions: H1299-neo p53 null cells, ATP luminescence, 24 h, 32C; at 46.1 µM (top of the series). From the text:
NIH Chemical Genomics Center [NCGC] NIH Molecular Libraries Screening Centers Network [MLSCN] MLSCN Grant: 1 X01 MH079844-01 Assay Submitter (PI): Dr. SUN, YI, University of Michigan NCGC Assay Overview: Synthetic Lethal Screen for Compounds to Kill Cancer Cells with p53 Mutation. Tumor suppressor gene p53 serves as a major cellular barrier against tumorigenesis. […] The goal of this screening is to identify small molecule probes that selectively kill cancer cells with mutations in p53. This screening was carried out using two lines of H1299 lung cancer cells. The H1299-p53 A138V line express a temperature sensitive p53 mutant (p53ts) in which the mutant p53 protein (A138V) is in the mutant confirmation when grown at 39C (the nonpermissive temperature) and in the wild type conformation when grown at 32C (the permissive temperature). A H1299-neo line (p53 null) grown at both 39C and 32C were used as counter-screens to filter out false positive associated with temperature shifting. The small molecular compounds that selectively target mutant p53-containing cancer cells were selected as candidate probes for further study. A cytotoxicity assay based on the measurement of ATP contents in cells was used in this screen. Concentration-responses of all the compounds in the library collection were determined in qHTS using the cell lines and temperature conditions as above.
NCGC Assay Protocol Summary: Both the H1299-p53A138V and H1299-neo cell lines were provided by Dr.Yi Sun, a PI at the University Michigan. The cells were maintained and cultured at 37C. The resuspended frozen cells were used to plate the cells in the 1536-well assay plates at a density of 600 cells per well in 5 ul medium. The assay plates with the cells were incubated at 37C for 16 to 30 hours before the experiments. The library compounds in DMSO solution were added to the cells in assay plates and incubated 24 hours at 39C (for mutant p53 conformation) or 32C (for normal p53 conformation as control). An ATP_lite assay kit (PerkinElmer) was used to determine the cell viability. Tomaxifen (100uM) was used as the positive control for cell killing. Data were normalized to the controls for basal activity (DMSO only) and 100% killing (100uM tamoxifen). AC50 values were determined from concentration-response data modeled with the standard Hill equation. P53 assay protocol: 1. Reagent; 5 uL H1299-p53A138V or H1299-neo cell cells/well 2. Time; overnight; 37C incubation 3. Compounds; 23 nL; 5.9 nM to 46 uM 4. Controls; 23 nL; Tamoxifen 100 uM 5. Time; 24 hr; 32C incubation 6. Reagent; 3 uL; ATP_Lite reagent 7. Time; 20 min; Room Temperature 8. Detection; Luminescence; Viewlux plate reader Keywords: p53, synthetic lethal, cancer, cell viability, cytotoxicity, H1299 cell line, luminescence, MLSMR, MLSCN, NIH Roadmap, qHTS, NCGC
A general note: In qHTS, concentration-response curves come from the screen itself.
Consider `CN(C)C1(CNC(=O)c2ccc(C(C)(C)C)cc2)CCCCC1`, for which the activity change, negative = cytotoxicity is inactive: -8.75%.
Under `CC(C)(C)c1ccc(C(=O)NCC2(N3CCOCC3)CCCCC2)cc1` stands inactive: -8.99%; under `Cc1ccccc1C(=O)NCC1(N(C)C)CCCCC1`, inactive: -2.79%; under `COc1cc(C(=O)NCC2(N3CCOCC3)CCCCC2)cc(OC)c1OC`, inactive: -3.06%.
For the compound `O=C(NCC1(N2CCOCC2)CCCCC1)c1ccc([N+](=O)[O-])cc1`, the activity change, negative = cytotoxicity was inactive: -10.9%.
Under `O=C(NCC1(N2CCOCC2)CCCCC1)c1ccccc1[N+](=O)[O-]` stands inactive: -4.68%; under `O=C(NCC1(N2CCOCC2)CCCCC1)c1ccccc1`, inactive: -3.5%; under `CCOc1ccc(C(=O)NCC2(N3CCOCC3)CCCCC2)cc1`, inactive: -8.99%.
As to `CCCOc1cccc(C(=O)NCC2(N3CCOCC3)CCCCC2)c1`, the activity change, negative = cytotoxicity is inactive: 3.25%.
Then `CCCCOc1ccccc1C(=O)NCC1(N2CCOCC2)CCCCC1`, with inactive: -13%; and `O=C(NCC1(N2CCOCC2)CCCCC1)c1ccccc1Br`, with inactive: -2.15%; and `COc1ccccc1C(=O)NCC1(N2CCOCC2)CCCCC1`, with inactive: -6.56%.
In the case of `O=C(NCC1(N2CCOCC2)CCCCC1)c1ccc(Cl)cc1`, the activity change, negative = cytotoxicity is inactive: -1.77%.
